Assay [1] has as its target catalytic domain of human stromelysine (Homo sapiens, UniProt P08254). The assay is described as follows: Enzyme inhibition, catalytic domain of human stromelysine (fluorogenic substrate). Particulars: read-out: Stromelysine IC 50; hydroxamic acids up to and including Example 33; tris/HCl buffer pH=7.5.
For assay [2], the target named is catalytic domain of stromelysine-1 (Homo sapiens, UniProt P08254). The assay is described as follows: Proteoglycan degradation assay (bovine aggrecan, ELISA with antibody 5-D-4). Particulars: read-out: Proteoglycane degradation IC50; bovine nasal proteoglycane, 60 ng stromelysine-1 catalytic domain, MES pH 6.0, RT 3 h.
Assay [3] addresses catalytic domain of neutrophil collagenase (Homo sapiens, UniProt P22894). Nature of the assay: Enzyme inhibition, catalytic domain of neutrophil collagenase (fluorogenic substrate). Particulars: read-out: Neutrophil collagenase IC 50; hydroxamic acids up to and including Example 33; tris/HCl buffer pH=7.5.

Chains of the proteins cited; added tags and fusions are not shown. Residues count along the entry.
UniProt P08254, 100-272 limits assumed: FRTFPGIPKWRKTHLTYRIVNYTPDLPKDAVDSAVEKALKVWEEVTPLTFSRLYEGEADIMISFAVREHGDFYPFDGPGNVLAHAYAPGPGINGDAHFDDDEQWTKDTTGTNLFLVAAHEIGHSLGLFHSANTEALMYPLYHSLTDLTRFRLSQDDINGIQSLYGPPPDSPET
UniProt P22894, 100-262 limits assumed: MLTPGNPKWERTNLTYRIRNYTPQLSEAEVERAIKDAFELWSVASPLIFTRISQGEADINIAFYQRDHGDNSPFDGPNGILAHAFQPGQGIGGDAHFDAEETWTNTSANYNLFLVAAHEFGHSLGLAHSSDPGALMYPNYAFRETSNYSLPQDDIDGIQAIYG

For `COc1ccc(S(=O)(=O)N2Cc3cc(O)ccc3C[C@@H]2C(=O)NO)cc1`, the IC50 was found to be 10 nM in assay [1], 130 nM in assay [2] and 1 nM in assay [3].
